Where “and” joins values, the source holds several entries; their conditions need not be identical. Identical values can stand only once. Like-named read-outs stand apart in the source and are kept apart here.
Target: acetylcholinesterase (AChE) (Electrophorus electricus, UniProt O42275)
Settings: for IC50: estimated from Fig. 1; for Ki: read-out: Ki (inhibition constant), Lineweaver-Burk analysis

Protein sequences, listed by entry. Tags and fused reporters are not part of them. Residues count along the entry.
UniProt O42275, 24-633: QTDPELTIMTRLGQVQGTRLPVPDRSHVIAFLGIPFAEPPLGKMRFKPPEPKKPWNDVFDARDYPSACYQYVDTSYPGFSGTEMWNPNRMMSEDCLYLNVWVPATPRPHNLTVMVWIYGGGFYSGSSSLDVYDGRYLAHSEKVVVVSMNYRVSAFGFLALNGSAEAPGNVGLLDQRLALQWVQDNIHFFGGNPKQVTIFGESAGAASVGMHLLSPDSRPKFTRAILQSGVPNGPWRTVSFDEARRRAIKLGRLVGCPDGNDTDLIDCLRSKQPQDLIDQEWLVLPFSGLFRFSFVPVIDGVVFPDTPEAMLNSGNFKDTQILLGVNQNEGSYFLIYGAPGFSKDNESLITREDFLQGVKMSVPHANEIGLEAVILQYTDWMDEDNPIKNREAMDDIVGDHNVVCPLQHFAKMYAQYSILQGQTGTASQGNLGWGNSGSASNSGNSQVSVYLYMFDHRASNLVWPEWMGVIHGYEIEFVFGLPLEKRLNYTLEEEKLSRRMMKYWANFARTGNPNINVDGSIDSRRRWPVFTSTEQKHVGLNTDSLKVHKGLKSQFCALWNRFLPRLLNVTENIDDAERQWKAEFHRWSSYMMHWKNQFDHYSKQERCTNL

| Substance | IC50 (30 °C, pH 8.0, 1.25% DMSO) | IC50 (expressed in g L^−1) | IC50 (expressed in ppm) [ppm] | Ki [mM] |
| --- | --- | --- | --- | --- |
| 1-Hydroxyquinopimaric acid [Compound U-201] | ~7.81 mM and 7.81 mM | ≈ 2.9 g L^−1 | 2990 | 3.89 |
| Cytisine-12-carbamide [Compound A-36] |  |  | > 3000 | 6.71 |
